Experimental findings from publication PMC6696040, “Affinity Immobilization of a Bacterial Prolidase onto Metal-Ion-Chelated Magnetic Nanoparticles for the Hydrolysis of Organophosphorus Compounds” (2019) are described below.

Protein sequences, listed by entry. Tags and fused reporters are not part of them. Lines headed by an entry give the natural chain unless they say otherwise; changes in a name come on top.
UniProt P21165: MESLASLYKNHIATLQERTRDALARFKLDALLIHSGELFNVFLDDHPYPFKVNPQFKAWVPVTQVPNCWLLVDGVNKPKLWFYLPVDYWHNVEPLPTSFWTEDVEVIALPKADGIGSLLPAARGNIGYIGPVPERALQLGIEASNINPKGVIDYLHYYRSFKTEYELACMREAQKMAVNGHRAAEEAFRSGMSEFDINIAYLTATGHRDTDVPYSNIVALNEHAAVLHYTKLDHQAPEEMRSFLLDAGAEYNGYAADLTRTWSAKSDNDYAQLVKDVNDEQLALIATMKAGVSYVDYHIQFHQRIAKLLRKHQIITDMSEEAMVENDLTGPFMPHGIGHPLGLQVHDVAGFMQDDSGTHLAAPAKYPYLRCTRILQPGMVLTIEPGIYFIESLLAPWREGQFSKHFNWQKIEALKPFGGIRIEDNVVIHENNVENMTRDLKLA

The structures appear in SMILES notation.

The target of this experiment is His6-EcPepQ (His6-tagged Escherichia coli prolidase) (Escherichia coli, UniProt P21165). As to the kind of experiment: proline release. The following applies: free enzyme; pH 8.0, 60 °C.

Turning to `C[C@H](N)C(=O)N1CCC[C@H]1C(=O)O`, the proline release result was “monitoring the release of proline from Ala-Pro by free and immobilized enzymes”.
